## Measured affinities in a library of Ab-14 light chain variants

Data: MIT Lincoln Laboratory AlphaSeq set, Li et al. 2023, doi:10.1038/s41467-023-39022-2, as distributed in FLAb.

Target peptide (SARS-CoV-2 spike, HR2 region): PDVDLGDISGINAS

Parent scFv Ab-14: VH joined to VL by a (GGGGS)3 linker. Changes lie in the light chain CDRs alone.
VH: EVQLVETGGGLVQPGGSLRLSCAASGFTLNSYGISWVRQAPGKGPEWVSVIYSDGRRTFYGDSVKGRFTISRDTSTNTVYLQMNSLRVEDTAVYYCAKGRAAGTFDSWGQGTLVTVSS
VL: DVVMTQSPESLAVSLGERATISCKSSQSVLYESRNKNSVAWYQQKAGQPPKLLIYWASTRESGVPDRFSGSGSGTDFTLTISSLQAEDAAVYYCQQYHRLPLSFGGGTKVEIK

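The parent was found by panning a naive human phage display library on the peptide. Designed CDR sequences, proposed from the first random library and measured here. Their group label is 14L_GP_Gen (GP: Gaussian process model; Gen: genetic algorithm; a sequence that several methods proposed may carry one label only). The assay is AlphaSeq: two haploid yeast populations carry antibody and antigen on their surface. Pairs that bind mate more often; barcode pairs of the diploids are counted by sequencing. Scores were corrected for input abundance and mapped to Kd with protein pairs of known affinity run in the same pool. The assay was run in six technical replicates.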

Substitutions are numbered in sequence along the VL above, starting at 1 (not Kabat).
Numbers give log10(Kd / nM), so 0 is 1 nM and 3 is 1 µM. Smaller is tighter.
Replicates are averaged; those with no signal do not enter the mean.
As a blank, each scFv also met three strains without target: over all light chain designs, 4% of these pairings were detected, typically at 2.64 and seldom below 1.59. For each scFv, signals with the empty controls are counted beside the result, with their mean in brackets.

changes,log10 Kd (nM) by replicate,"mean, log10 nM",control signals
S25L+V29E+N35Q+W56N+T59Q,0.05 -0.39 -0.13 -0.02 -0.34 -0.08,-0.15,0 of 18
S25F+V29E+N35M+W56N+T59Q,0.26 0.11 0.16 -0.07 -0.09 0.06,0.07,2 of 18 (2.75)
S25L+V29M+S33E+W56N+T59Q,-0.20 -0.46 -0.45 -0.61 -0.56 -0.29,-0.43,0 of 18
S25Q+L30W+Y31M+W56E,0.27 -0.05 0.26 0.21 0.22 0.30,0.20,3 of 18 (2.59)
S25L+N37W+W56N+S62D,-0.26 -0.56 -0.59 -0.53 -0.41 -0.28,-0.44,3 of 18 (2.68)
K24H+S25L+V29E+W56N+E61M,-0.14 -0.11 -0.39 -0.48 -0.34 -0.16,-0.27,1 of 18 (4.37)
S25L+V29N+W56N+Q96D,0.03 0.09 -0.11 0.00 0.01 -0.04,0.00,1 of 18 (3.40)
S25I+S26P+W56N,-0.43 -0.44 -0.72 -0.65 -0.57 -0.40,-0.54,2 of 18 (2.90)
S25L+S26Q+V29W+W56N+E61L+S62D,-0.02 -0.13 -0.25 -0.31 -0.15 0.04,-0.14,4 of 18 (3.19)
S25L+S33Q+W56S+E61M,0.13 -0.44 -0.26 -0.26 -0.18 -0.01,-0.17,1 of 18 (2.43)
S25F+L30D+W56E,-0.19 -0.17 -0.30 -0.22 0.06 -0.02,-0.14,0 of 18
S25L+V29M+W56N+T59Q+S62V,0.85 1.36 1.71 0.34 0.52 0.63,0.90,0 of 18
S25L+S26P+V29W+W56N+Q96D,0.16 0.10 -0.04 -0.06 0.00 0.13,0.05,2 of 18 (2.74)
S25L+S26E+V29W+W56N+T59E,0.05 0.09 0.00 -0.11 -0.12 0.33,0.04,0 of 18
S25V+S26E+V29E+W56N+T59Q,0.06 0.00 -0.23 0.11 0.16 0.19,0.05,0 of 18
S25L+V29M+S38A+W56E,0.03 -0.05 -0.18 -0.22 -0.24 -0.01,-0.11,2 of 18 (2.76)
S25L+W56E+E61C+S62D,0.02 -0.22 -0.27 -0.41 -0.26 -0.01,-0.19,1 of 18 (2.62)
S25L+S26Q+V29W+W56N+S62V,0.01 -0.07 0.09 -0.25 0.15 0.06,0.00,2 of 18 (2.69)
S25M+V29D+W56D,-0.56 -0.40 -0.60 -0.72 -0.72 -0.59,-0.60,0 of 18
S25V+S28Q+V29D+W56E,-0.14 -0.02 -0.32 -0.39 -0.02 -0.03,-0.15,0 of 18
S25V+S26E+V29W+W56N+T59Q,0.96 1.31 0.83 0.69 0.86 1.23,0.98,1 of 18 (2.80)
S25L+V29M+W56N+T59Q+E61L,-0.19 -0.17 -0.26 -0.39 -0.24 -0.01,-0.21,1 of 18 (2.51)
S25L+S26E+V29Q+W56Q,-0.17 -0.15 -0.35 -0.34 -0.32 -0.11,-0.24,2 of 18 (2.60)
W56N+T59Q,0.47 0.35 0.28 0.16 0.29 0.41,0.33,4 of 18 (2.42)
S25L+S26P+W56E+S62E,-0.20 -0.29 -0.46 -0.57 -0.39 -0.28,-0.36,2 of 18 (3.46)
K24Y+S25V+V29E+W56N,-0.29 -0.40 -0.41 -0.45 -0.42 -0.13,-0.35,1 of 18 (1.76)
S25L+S26E+V29K+W56N,-0.12 -0.09 -0.25 -0.26 -0.27 -0.06,-0.18,2 of 18 (2.97)
S25L+S26Y+W56N+E61Y,0.41 0.08 0.20 0.03 0.07 0.08,0.15,0 of 18
S25L+S33E+S38N+W56D,0.05 -0.34 -0.43 -0.61 -0.24 -0.35,-0.32,1 of 18 (2.00)
S25F+V29D+W56G+T59Q,-0.31 -0.36 -0.60 -0.60 -0.48 -0.35,-0.45,4 of 18 (2.92)
S25L+V29W+N35L+W56N+T59Q,0.94 0.43 0.48 0.27 0.63 0.58,0.55,2 of 18 (2.47)
S25L+V29P+W56N+E61M,-0.02 -0.15 -0.21 -0.24 -0.29 0.10,-0.13,1 of 18 (2.12)
S25L+N35V+W56N,0.11 -0.07 -0.27 -0.17 -0.09 -0.01,-0.08,0 of 18
S26E+L30P+W56E,0.29 -0.01 -0.14 -0.42 0.17 0.13,0.00,1 of 18 (3.98)
S25L+S26Y+Q27G+V29Q+W56N,0.16 0.51 0.39 0.27 0.31 0.21,0.31,1 of 18 (1.44)
S25L+Q27G+W56E+S62Q,-0.17 -0.32 -0.16 -0.44 -0.32 -0.44,-0.31,0 of 18
S25L+S38N+W56E+S62K,-0.30 -0.57 -0.85 -0.81 -0.76 -0.57,-0.64,0 of 18
K24H+S25L+V29W+W56N+T59Q+E61L,0.27 0.23 0.12 0.05 0.01 0.13,0.14,2 of 18 (3.60)
S25V+W56E+S62K,0.30 0.48 -0.08 0.01 0.04 0.46,0.20,0 of 18
S25V+S26M+V29Y+W56N,1.13 0.74 0.10 1.53 0.49 0.42,0.74,0 of 18
S25V+S26L+W56N+T59Q,0.08 -0.04 -0.15 -0.23 0.32 0.15,0.02,0 of 18
S25L+V29E+E32L+W56E,-0.03 -0.47 -0.39 -0.34 -0.41 -0.38,-0.33,1 of 18 (2.43)
S25I+V29M+W56N+E61M,0.13 -0.09 -0.17 0.00 0.30 0.13,0.05,1 of 18 (3.49)
S25L+S26P+V29N+W56N+E61L,-0.03 0.09 0.04 -0.28 -0.15 0.12,-0.04,0 of 18
S25L+Q27E+V29D+W56N,0.09 0.06 0.09 -0.08 -0.10 0.27,0.06,0 of 18

Values of this round are not directly comparable with the first-round values of the same sequences.
Of ten entries with the parent sequence, four were seen in most replicates (averages 0.34 to 2.37), three in one and three in none, so single entries are noisy.
The authors' rule: three or more of the six replicates give a measured affinity, fewer mean a poor binder.